The list shows a part of the results, in another mix than the full data. Some tests of the compounds listed are not included; inactive here does not mean inactive elsewhere. Calls of active or inactive are those of the source. Cut-off read from the data, not from the text of the source: active = survival mostly below about 52% (no sharp cut-off); inactive = mostly above about 56%.
System: Wild type
Experiment: S. aureus survival, RN4220 and DeltatarO strains – OD600, teichoic acid synthesis inhibitors, primary screen (AID 463173)
Conditions: S. aureus RN4220 wild type/DeltatarO growth, OD600, 18 h, active compounds read low, screened at 18.75 µg/mL (by protocol)

SMILES | survival
CCOc1cccc(C(=O)NCC2(N(C)C)CCCCC2)c1 | inactive: 88%
CN(C)C1(CNC(=O)c2ccccc2[N+](=O)[O-])CCCCC1 | inactive: 98%
CCCCOc1ccccc1C(=O)NCC1(N(C)C)CCCCC1 | inactive: 90%
CN(C)C1(CNC(=O)c2cccc(Cl)c2)CCCCC1 | inactive: 91%
CN(C)C1(CNC(=O)c2ccccc2F)CCCCC1 | inactive: 89%
Cc1cccc(C(=O)NCC2(N(C)C)CCCCC2)c1 | inactive: 87%
COc1cc(C(=O)NCC2(N(C)C)CCCCC2)cc(OC)c1OC | inactive: 90%
CN1C2CCC1CC(OC(=O)C(O)(c1ccccc1)c1ccccc1)C2 (configuration not stated) | inactive: 109%
CC(C)Oc1ccc(C(=O)NCC2(N(C)C)CCCCC2)cc1 | inactive: 87%
COc1cccc(C(=O)NCC2(N3CCOCC3)CCCCC2)c1 | inactive: 97%
CC(C)COc1ccc(C(=O)NCC2(N(C)C)CCCCC2)cc1 | inactive: 88%
COc1ccc(C(=O)NCC2(N(C)C)CCCCC2)cc1Cl | inactive: 88%
